Experimental data from article PMC6023086, “Improving the Activity of Trp-Rich Antimicrobial Peptides by Arg/Lys Substitutions and Changing the Length of Cationic Residues” (Biomolecules, 2018).

System: Escherichia coli ATCC 25922
Format: cell-based
Conditions: E. coli ATCC 25922, Mueller-Hinton broth, 5 × 10^5 cfu/mL, 37 °C, 16 h; run in triplicate, range of all three experiments
Experimental: The antibacterial activity of the Tritrp-derived peptides and other AMPs was assessed against E. coli ATCC 25922, as a representative of Gram-negative bacteria, incubated in Mueller-Hinton broth media (Table 2). […] Arg-to-Lys mutations were correlated with a decrease in activity for almost all peptides. […] The lack of sensitivity of the activity of the Tritrp3 peptide to the nature of the positively charged residues prompted a more detailed study of the structure-activity relationship. Tritrp7 and Tritrp8 are analogs of Tritrp3 where only a single Pro residue is mutated by Ala. These mutations are known to alter the 3D structure of the peptides when interacting with sodium dodecyl sulfate (SDS) micelles, specifically reducing the helicity of the original Tritrp3 peptide (Table 1).
The antibacterial activity for the peptides in this study against E. coli ATCC 25922 was determined by the broth microdilution method. […] The plates were incubated at 37 °C for 16 h, and the minimal inhibitory concentration was determined after incubation as the minimal peptide concentration at which cell growth was not observed.

How did the MIC turn out when `CC[C@H](C)[C@H](NC(=O)CN)C(=O)NCC(=O)N[C@@H](C)C(=O)N[C@H](C(=O)N[C@@H](CC(C)C)C(=O)N[C@@H](CCCCN)C(=O)N[C@H](C(=O)N[C@@H](CC(C)C)C(=O)N[C@H](C(=O)N[C@H](C(=O)NCC(=O)N[C@@H](CC(C)C)C(=O)N1CCC[C@H]1C(=O)N[C@@H](C)C(=O)N[C@@H](CC(C)C)C(=O)N[C@H](C(=O)N[C@@H](CO)C(=O)N[C@@H](Cc1c[nH]c2ccccc12)C(=O)N[C@H](C(=O)N[C@@H](CCCCN)C(=O)N[C@@H](CCCNC(=N)N)C(=O)N[C@@H](CCCCN)C(=O)N[C@@H](CCCNC(=N)N)C(=O)N[C@@H](CCC(N)=O)C(=O)N[C@@H](CCC(N)=O)C(N)=O)[C@@H](C)CC)[C@@H](C)CC)[C@@H](C)O)[C@@H](C)O)C(C)C)C(C)C` [Melittin, reference compound] was run?
The MIC was 2 µM (≈ 5.69 µg/mL).

In brackets after ≈: the same amount, converted by molar mass.
